The experiment deals with 5-hydroxytryptamine receptor 4 (Cavia porcellus) (UniProt O70528). As to the kind of experiment: Displacement of [3H]GR113808 from 5HT4R in guinea pig striatal membranes at 1 uM. In kind it is cell membranes. The following applies: Striatum, Membrane. A digest of the protocol:
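Native 5-HT4R in male guinea pig striatal membranes (HEPES 50 mM pH 7.4); 600 µg membrane incubated in duplicate with [3H]GR 113808 at 0.1 nM final, 37 °C, 30 min; filtration on PEI-soaked GF/B filters, cold buffer washes.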
In general terms: Displacement assays read how much labelled ligand stays bound in the presence of the test substance.

By UniProt entry, the sequences of proteins in these tests, tags left out. Where a name states a change or a piece, a line headed by the entry shows the natural chain unless it says otherwise.
UniProt O70528: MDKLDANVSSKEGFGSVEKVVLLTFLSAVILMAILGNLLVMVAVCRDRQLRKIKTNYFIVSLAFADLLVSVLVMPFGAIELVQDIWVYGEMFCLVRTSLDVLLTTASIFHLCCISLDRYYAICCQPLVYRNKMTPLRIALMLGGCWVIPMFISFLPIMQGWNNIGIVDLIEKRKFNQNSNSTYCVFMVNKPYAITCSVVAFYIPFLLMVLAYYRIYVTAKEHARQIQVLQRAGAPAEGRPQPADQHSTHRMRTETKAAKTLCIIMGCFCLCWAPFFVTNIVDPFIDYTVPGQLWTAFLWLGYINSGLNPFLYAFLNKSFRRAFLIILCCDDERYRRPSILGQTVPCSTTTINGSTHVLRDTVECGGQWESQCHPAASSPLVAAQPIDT

Each structure is given as a SMILES string.

As a reminder, the inhibition is the share of the control response that was lost under treatment.

`CCCN1CCC(COc2nc3ccccc3c3cccc(F)c23)CC1` registered an inhibition of 100%.

With `CCCN1CCC(COc2nc3cc(F)ccc3c3ccccc23)CC1`, the inhibition amounted to 100%.

The values are drawn from ChEMBL document CHEMBL2176996, “Synthesis and structure-affinity relationships of selective high-affinity 5-HT(4) receptor antagonists: application to the design of new potential single photon emission computed tomography tracers” (J Med Chem, 2012).
